The text below walks through data of PubChem BioAssay AID1530 (NMMLSC, 2009).

Only a part is listed here, and it is no random draw. Activity calls are given as the source filed them. Rule as the data show it: active = percent response above about 24% (passing the limit was not always enough); inactive = the rest.

In the assay the test system is MEKK2 (MAP3K2) mutant PB1 domain binding to MEK5, human. The assay can be described thus: MEK5 binding signal on mutant MEKK2 PB1, primary screen, biochemical, multiplex bead flow cytometry, Alexa488-MEK5 (AID 1530). Particulars: at 10 µM, active compounds read high. In general terms: A flow cytometer gives signals particle by particle.
Turning to `O=[N+]([O-])c1cccc(NC2=NCC(CBr)S2)c1` (stereo not drawn), the percent response is inactive: -2%.

On to `O=C(O)CNc1ccc([As](=O)(O)O)cc1`, for which the percent response is inactive: 1%.

With `CC(C)(C)C(=O)NC(Sc1ccncn1)C(Cl)(Cl)Cl` (stereo not drawn), the percent response was inactive: -2%.

As to `O=[N+]([O-])c1ncn(CCn2ncnc2[N+](=O)[O-])n1`, the percent response was inactive: 2%.

Take `O=C(Nc1cc([As](=O)(O)O)ccc1O)c1ccccc1`: the percent response is inactive: -6%.

Regarding `CC(C)=N/N=C(\N)N[N+](=O)[O-]`, the percent response was inactive: -6%.

Regarding `CN(C)C(=O)OCCc1n(C)cc[n+]1C`, the percent response was inactive: -4%.

Turning to `CC1CCN(C(=O)Oc2c(Cl)cc(Cl)c3cccnc23)CC1`, the percent response was inactive: -5%.

With `Nc1ccc([As](=O)(O)c2ccc(N)cc2)cc1`, the percent response is inactive: -4%.

For the compound `C[N+]1=C2C=CC=CC=C2SC12C([N+](=O)[O-])=CC([N+](=O)[O-])=C[C-]2[N+](=O)[O-]` (stereo not drawn), the percent response is inactive: -33%.

In the case of `CCN(/C(=N/P(=O)(N1CCOCC1)N1CCOCC1)N1CCOCC1)c1ccc(OC)cc1`, the percent response was inactive: 1%.

Turning to `CC(=O)N1C2C3N(C(C)=O)C1C1N(C(C)=O)C(C(N1C(C)=O)N3C(C)=O)N2C(C)=O`, the percent response is inactive: 8%.

For the compound `O=[N+]([O-])c1cccc2n[nH]nc12`, the percent response was inactive: 1%.

For `Cc1ccc(NP(=O)(Oc2ccccc2)Oc2ccccc2)nc1`, the percent response is inactive: -6%.

For `O=[N+]([O-])c1cc([N+](=O)[O-])c(CCNc2ccccc2)c([N+](=O)[O-])c1`, the percent response was inactive: 4%.

Regarding `CCc1nc2c(n1)c1c(non1O)c1c2no[n+]1[O-]`, the percent response was inactive: -1%.

`COc1ccc(C2=NCC(CBr)S2)cc1` (stereo not drawn): the percent response is inactive: -1%.

As for `Nc1cc(N)c2nonc2c1[N+](=O)[O-]`, the percent response is inactive: 15%.

For the compound `CC(C)CC(=O)NC(Sc1ccc(Cl)cc1)C(Cl)(Cl)Cl` (stereo not drawn), the percent response was inactive: -6%.

Consider `Oc1ccccc1CNc1ccccn1`, for which the percent response was inactive: -5%.

For the compound `O=C(NC(Sc1ccncn1)C(Cl)(Cl)Cl)c1ccccc1` (stereo not drawn), the percent response is inactive: 0%.

Regarding `Cc1c2non([O-])c-2c(C)[n+](=O)[n+]1[O-]`, the percent response was inactive: -1%.

Turning to `COc1ccccc1OP(=O)(Nc1ccc(C)cn1)Oc1ccccc1OC`, the percent response was inactive: -7%.

`Cc1ccc(OP(=O)(Nc2nccs2)Oc2ccc(C)cc2)cc1`: the percent response was inactive: -10%.

Consider `CN1CCCC(OC(=O)C(c2ccccc2)c2ccccc2)C1` (stereo not drawn), for which the percent response is inactive: 5%.

As to `Clc1ccc(Cl)c(NC2=NCC(CBr)S2)c1` (stereo not drawn), the percent response is inactive: 4%.

As to `NC(=O)c1cc([N+](=O)[O-])cc([N+](=O)[O-])c1N`, the percent response was inactive: -13%.

Turning to `CCN(N=Nc1nonc1N)c1nonc1N`, the percent response is inactive: 0%.

Consider `Nc1cccc2ccc([As](=O)(O)O)cc12`, for which the percent response is inactive: -3%.

With `O=[N+]([O-])c1cc([N+](=O)[O-])c(CCN2CCOCC2)c([N+](=O)[O-])c1`, the percent response was inactive: 1%.

In the case of `Cc1cc(SC(NC(=O)c2ccc(F)cc2)C(Cl)(Cl)Cl)ncn1` (stereo not drawn), the percent response is inactive: 8%.

Regarding `CCOP(=O)(Nc1ccccc1)OCC`, the percent response was inactive: 1%.

As to `CN(C(=O)Cc1ccc(Cl)c(Cl)c1)[C@H]1CCCC[C@@H]1N1CCCC1`, the percent response is inactive: 5%.

With `Cc1ccc(NP(=O)(Oc2ccccc2F)Oc2ccccc2F)nc1`, the percent response was inactive: 21%.

As for `CC(=O)Nc1ccc([As](=O)(O)O)cc1`, the percent response is inactive: 4%.

For `O=C(O)c1ccccc1[As](=O)(O)O`, the percent response was inactive: 9%.

Consider `O=P(Nc1nc2ccc(Cl)cc2s1)(c1ccccc1)c1ccccc1`, for which the percent response is inactive: -5%.

For `Cc1ccccc1OP(=O)(Nc1ccccn1)Oc1ccccc1C`, the percent response was inactive: -22%.

With `O=c1c2cc([N+](=O)[O-])ccc2[nH]c2c([N+](=O)[O-])cc([N+](=O)[O-])cc12`, the percent response is inactive: -12%.

As to `CN(C)C(=O)Oc1noc2ccccc12`, the percent response is inactive: 0%.

Take `COC(=O)c1cc2c(s1)N=C(c1ccccc1)N(C)P2(=O)N1CCOCC1` (stereo not drawn): the percent response is inactive: 15%.

Consider `CC(=O)NC(SC(=S)N(CC(C)C)CC(C)C)C(Cl)(Cl)Cl` (stereo not drawn), for which the percent response was inactive: 1%.

As to `Cc1ccc(OP(=O)(Nc2ccccn2)Oc2ccc(C)cc2)cc1`, the percent response was inactive: -2%.

For the compound `O=C(OC1CN2CCC1CC2)c1ccccc1` (stereo not drawn), the percent response is inactive: -10%.

For the compound `CCC(=O)N1C2C3N(C(=O)CC)C1C1N(C(=O)CC)C(C(N1C(=O)CC)N3C(=O)CC)N2C(=O)CC`, the percent response is inactive: 6%.

Take `O=C(NC1CCS(=O)(=O)C1)NP(=S)(Oc1ccccc1)Oc1ccccc1` (stereo not drawn): the percent response is inactive: -2%.

With `CCNC(=S)/N=C(\N)N[N+](=O)[O-]`, the percent response was inactive: 10%.

As to `c1ccc(-c2nn[nH]n2)c(-c2nn[nH]n2)c1`, the percent response was inactive: -16%.

On to `Cc1ccc(NP(=O)(Oc2cccc(C)c2)Oc2cccc(C)c2)nc1`, for which the percent response is inactive: -21%.

As to `CCOC(=O)NC(Sc1ccccc1)C(Cl)(Cl)Cl` (stereo not drawn), the percent response is inactive: 2%.

In the case of `CC(=O)Nc1ccc([As](=O)(O)O)c(O)c1`, the percent response was inactive: -11%.

Take `CC(=O)Nc1ccc(Oc2c([N+](=O)[O-])cc([N+](=O)[O-])cc2[N+](=O)[O-])cc1`: the percent response was inactive: -2%.

Regarding `CC(=O)c1ccc(N2CC2c2ccncc2)cc1` (stereo not drawn), the percent response was inactive: 0%.

Turning to `C[C@H]1OP(=O)(Oc2ccccc2)C[C@@H]2O[C@@H]21` (stereo partly drawn), the percent response is inactive: 4%.

Take `C[C@@H]1C=CCP(=O)(Oc2ccccc2)O1` (stereo partly drawn): the percent response was inactive: 3%.

Consider `CC(C)(C)C(=O)NC(Sc1ccccc1)C(Cl)(Cl)Cl` (stereo not drawn), for which the percent response was inactive: -10%.

In the case of `O=P1(Nc2nc3ccc(Cl)cc3s2)COc2ccccc2O1` (stereo not drawn), the percent response was inactive: 3%.

Regarding `CCOc1ccc(C2=NCC(CBr)S2)cc1` (stereo not drawn), the percent response is inactive: -1%.

For the compound `c1nnnn1CCn1cnnn1`, the percent response was inactive: 3%.

`O=P(Nc1nccs1)(c1ccccc1)c1ccccc1`: the percent response was inactive: 3%.

Turning to `CC(C)C(=O)NC(Sc1ccccc1)C(Cl)(Cl)Cl` (stereo not drawn), the percent response was inactive: 0%.

In the case of `C(Cc1nn[nH]n1)Cc1nn[nH]n1`, the percent response was inactive: 1%.

As to `Nc1ccc([As](=O)(O)c2ccc([N+](=O)[O-])cc2)cc1`, the percent response is inactive: -3%.

On to `O=C(OC1CN2CCC1CC2)c1cccc(Cl)c1` (stereo not drawn), for which the percent response is inactive: 5%.

For `CC(=O)NC(SC(=S)N(C)C)C(Cl)(Cl)Cl` (stereo not drawn), the percent response was inactive: -1%.

As for `O=[N+]([O-])c1ncn(CCn2cnc([N+](=O)[O-])n2)n1`, the percent response was inactive: 2%.

With `O=[N+]([O-])c1ccc(O)c(/C=N/Nc2ccc([N+](=O)[O-])cc2[N+](=O)[O-])c1`, the percent response was inactive: 1%.

Regarding `O=[As](O)(c1ccccc1)c1ccc(O)cc1`, the percent response is inactive: 6%.

`O=P(Nc1nc2ccccc2s1)(c1ccccc1)c1ccccc1`: the percent response was inactive: -3%.

For `C[C@H]1OP(=O)(Oc2ccccc2)[C@H](O)[C@H](O)[C@H]1N=[N+]=[N-]` (stereo partly drawn), the percent response is inactive: 4%.

`CN(C)C1(CNC(=O)c2ccc(Cl)c(S(N)(=O)=O)c2)CCCCC1`: the percent response is inactive: 5%.

Regarding `O=P(Nc1ccccn1)(c1ccc(Br)cc1)c1ccc(Br)cc1`, the percent response was inactive: 2%.

For the compound `Cc1ccc(OCC(=O)OC2CN3CCC2CC3)cc1` (stereo not drawn), the percent response was inactive: 1%.

On to `O=[As](O)(c1cccs1)c1cccs1`, for which the percent response is inactive: 9%.

`O=P1(Nc2ccc(Br)cn2)COc2ccccc2OC1`: the percent response is inactive: -3%.

For the compound `Nc1cccc([As](=O)(O)c2ccccc2)c1`, the percent response was inactive: 5%.

In the case of `O=P1(Nc2ncccn2)COc2ccccc2OC1`, the percent response was inactive: -3%.

For the compound `O=C(/C=C/c1ccccc1)OC1CN2CCC1CC2` (stereo not drawn), the percent response is inactive: 1%.

For the compound `CN(C)C1(CNC(=O)c2ccc(S(C)(=O)=O)cc2)CCCCC1`, the percent response is inactive: -12%.

For `Cc1ccc(C(=O)OC2CN3CCC2CC3)cc1` (stereo not drawn), the percent response was inactive: 1%.

`CC1CCC(C(C)C)C(OP(=O)(Nc2ccccn2)c2ccccc2)C1` (stereo not drawn): the percent response was inactive: -3%.

As for `O=[As](O)(c1ccccc1Br)c1ccccc1Br`, the percent response is inactive: -6%.

For `CC1(CBr)Cn2c(nc3ccccc3c2=O)S1` (stereo not drawn), the percent response was inactive: 18%.

For the compound `CN(C(=O)Cc1ccc(Cl)c(Cl)c1)[C@@H]1CCCC[C@H]1N1CCCC1`, the percent response is inactive: 5%.

Turning to `CC(C)/C=N\N=C(\N)N[N+](=O)[O-]`, the percent response is inactive: 5%.

For `Clc1n[nH]nc1-c1nn[nH][15n]1`, the percent response was inactive: 1%.

As to `CC(C)(C)C(=O)NC(Sc1ncccn1)C(Cl)(Cl)Cl` (stereo not drawn), the percent response is inactive: -6%.

With `CCOP(=O)(Nc1ccc(C)cn1)OCC`, the percent response was inactive: 3%.

With `CN(CCCl)Cc1cc(Cl)c(NC2=NCCN2)c(Cl)c1`, the percent response is inactive: 10%.

Take `CCC1=CC2Cc3nc4ccc(Cl)cc4c(N)c3C(C1)C2` (stereo not drawn): the percent response is inactive: 21%.

Consider `O=P1(Nc2ccccn2)COc2ccccc2OC1`, for which the percent response was inactive: 2%.

As for `CCOP(=O)(NC(=NC(C)c1ccccc1)NC(C)c1ccccc1)OCC` (stereo not drawn), the percent response was inactive: 2%.

With `COc1cc(C2NCCC3(OCCO3)C2(C)C)cc(OC)c1OC` (stereo not drawn), the percent response is inactive: -3%.

As for `CCOP(=O)(Nc1cccc2ccccc12)OCC`, the percent response was inactive: -2%.

Turning to `CCCOP(=S)(Nc1nc(N)cc(=O)[nH]1)OCCC`, the percent response was inactive: 2%.

Turning to `Cc1ccc(NCCc2c([N+](=O)[O-])cc([N+](=O)[O-])cc2[N+](=O)[O-])cc1`, the percent response was inactive: -2%.

On to `Nc1cccc2c([As](=O)(O)O)cccc12`, for which the percent response is inactive: 3%.

In the case of `Cc1cccc(OCC(=O)OC2CN3CCC2CC3)c1` (stereo not drawn), the percent response is inactive: -12%.

As for `O=[As](O)(c1cccc(O)c1)c1cccc(O)c1`, the percent response is inactive: -14%.

For `O=[As](O)(O)c1cccnc1`, the percent response was inactive: 5%.

As to `COc1cc(C(=O)NCC2(N3CCOCC3)CCCCC2)cc(Cl)c1OC(C)C`, the percent response is inactive: 0%.

For `CS(=O)(=O)c1ccc(Cl)c(NC(=O)COC(=O)C(O)(c2ccccc2)c2ccccc2)c1`, the percent response was inactive: 5%.

Consider `O=C(OC1CN2CCC1CC2)c1ccc(Cl)cc1` (stereo not drawn), for which the percent response is inactive: 8%.

In the case of `O=[N+]([O-])c1ccc2c(c1)nnn2O`, the percent response was inactive: 7%.

Consider `CN(C(=O)Cc1ccc(Cl)c(Cl)c1)[C@H]1CC[C@@]2(CCCO2)C[C@@H]1N1CCCC1`, for which the percent response was inactive: 0%.

With `CN(C(=O)Cc1ccccc1)[C@@H]1CC[C@]2(CCCO2)C[C@H]1N1CCCC1`, the percent response was inactive: 1%.

For `CCOP1(=S)c2c(C)nn(CCC#N)c2N=C(c2ccc(F)cc2)N1C` (stereo not drawn), the percent response was inactive: 2%.

In the case of `NC(=O)Nc1ccc([As](=O)(O)O)cc1`, the percent response is inactive: 3%.
